TDP1 block = TDP1 (human) enzyme inhibition; Q9NUW8; recombinant TDP1, AlphaScreen DNA substrate cleavage; Potency, µM (highest dose often 130 µM), for inactives: top-dose activity change, negative = inhibition, actives largely listed as inhibitors; 350,000 tested, 0.28% active; AID 485290; also: potency is read from the fitted curve at half-maximal effect; % is scaled to controls: 0 for no effect and ±100 for the full control effect; nearly all actives have a fitted effect of over 40% in size
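AlphaScreen read-out: signal falls as enzyme removes the 3' tyrosine-FITC from a 5'-biotinylated DNA oligo (15 nM, 5 min, RT). Enzyme was E. coli-made recombinant Tdp1 at 1 nM, exposed to compound for 15 min beforehand; beads 10 ug/ml, 10 min.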
uPA generation = cell surface uPA generation inhibition; cell surface uPA generation assay, qHTS; Potency, µM (doses to about 38.3 µM), for the others: top-dose activity change, negative = inhibition, most hits filed as inhibitors; 330,000 tested, 0.31% active; AID 540303; active = well fitted inhibition curve with a large enough effect; inconclusive = small, poorly fitted or top-dose-only effect; inactive = no such curve, though single readings can be large or run the other way; tested in mouse RAW 264.7 cells; also: potency is read from the fitted curve at half-maximal effect; % is scaled to controls: 0 for no effect and ±100 for the full control effect; nearly all actives have a fitted effect of over 55% in size
DT40 TDP1 no CPT = qHTS for Inhibitors of human tyrosyl-DNA phosphodiesterase 1 (TDP1): qHTS in cells in absence of CPT; AID 686978, 2013; Potency, µM (doses to about 46.2 µM), for the others: at the top dose activity change, negative = growth inhibition, most hits filed as inhibitors; DT40 Tdp1-/- hTDP1 cells, no CPT, ATP luminescence, 48 h; 420,000 tested, 15% active; also: potency is read from the fitted curve at half-maximal effect; % is scaled to controls: 0 for no effect and ±100 for the full control effect; nearly all actives have a fitted effect of over 55% in size
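A cellular qHTS used chicken DT40 cells lacking endogenous Tdp1 but carrying stably transfected human TDP1. Compounds were applied without camptothecin, and cell growth kinetics were judged by ATP-dependent luminescence after ≥48 hr.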
miR-21 reporter = raises the signal of a miR-21 reporter. Potency, µM (highest dose often 38.3 µM), without a hit: top-dose reporter change, positive = more light. 340,000 tested, under 10 active. HeLa miR-21 FLuc reporter, luciferase, 48 h; active = well fitted rising curve with a large enough effect; inconclusive = small, poorly fitted or top-dose-only effect; inactive = no such curve, though single readings can be large or run the other way;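 further: % of control where 0% means no effect; miR-21 action dims this reporter so a rising signal means less miR-21 action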
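Compounds were titrated across several concentrations (up to approximately 40 uM) and incubated 48 hours with HeLa miR-21-FLuc reporter cells (miR-21 target sequence downstream of FLuc, endogenous miR-21). Readout was firefly luciferase luminescence after lytic detection reagent.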
TDP1 cell CPT = DT40-hTDP1 cell growth loss with CPT | chicken DT40 Tdp1-/-;hTDP1 cells + 20 nM CPT, ATP luminescence, 48 h | Potency, µM (doses to about 46.2 µM), without a hit: top-dose activity change, negative = growth inhibition, actives largely listed as inhibitors | 420,000 tested, 12% active; also: potency is read from the fitted curve at half-maximal effect; % is scaled to controls: 0 for no effect and ±100 for the full control effect; nearly all actives have a fitted effect of over 55% in size
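Chicken DT40 Tdp1-/- cells complemented with human TDP1, 400 cells/well, exposed to compounds plus 20 nM camptothecin for at least 48 h at 37 C; viability read as ATP content by CellTiter-Glo luminescence.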
Numbers without * were called inactive; ? = inconclusive; / = no result. Sampled rows, rich in hits. Any-hit rate of the full collection: about 16%. Unless noted, calls follow the shape of the dose curve; as a rule, active = well fitted curve in the direction sought with a large enough effect; inconclusive = small, poorly fitted or top-dose-only effect, or another doubt; inactive = no such curve, though single readings can be large; an effect the other way counts as inactive or inconclusive.

no. | Molecule | TDP1 block | uPA generation | DT40 TDP1 no CPT
1 | Cc1c[nH]c(=O)n(CCCN2CCN(c3ccccc3OCC(F)(F)F)CC2)c1=O | 4.8% | / | ?
2 | CN(CCOCCOc1ccc(F)cc1)Cc1ccccc1 | / | -7.9% | ?
3 | C=Cc1ncc(OC)c2c1[nH]c1ccccc12 | / | ? | 3.66µM*
4 | OC(Cc1ccccc1Br)c1ncc(-c2cccc(C(F)(F)F)c2)[nH]1 (centres undefined) | / | / | 16.4µM*
5 | Cc1ccc(C(O)c2ncc(-c3cccc(F)c3)[nH]2)cc1 (centres undefined) | / | / | 2.9%
6 | OC(Cc1cccc(Br)c1)c1ncc(-c2cccc(C(F)(F)F)c2)[nH]1 (centres undefined) | / | / | 16.4µM*
7 | CC(C)(C)c1ccc(C(O)c2ncc(-c3ccccc3)[nH]2)cc1 (centres undefined) | / | / | -17.7%
8 | O/N=C(\c1ccc(Cl)cc1)c1ncc(C(F)(F)F)cc1Cl | 0.0% | 7.6% | -20.5%

no. | miR-21 reporter | TDP1 cell CPT
1 | / | -8.9%
2 | -0.9% | ?
3 | / | 3.66µM*
4 | / | 23.1µM*
5 | / | ?
6 | / | ?
7 | / | ?
8 | 5.3% | ?

(listing goes on)
no. | Molecule | TDP1 block | uPA generation | DT40 TDP1 no CPT
9 | Nc1nnc(N)c2ccccc12 | -1.6% | 0.0% | 8.4%
10 | Nc1nsc2ccccc12 | 0.0% | ? | 2.24µM*
11 | CCc1cc(C(=O)NC2CCCc3c2cnn3-c2ccc(F)cc2F)no1 (centres undefined) | / | / | 18.4µM*
12 | O=C(CCc1ccncc1)NC1CCCc2c1cnn2-c1ccc(F)cc1F (centres undefined) | 3.6% | -5.8% | ?
13 | CC1=C(C(=O)NC2CCCc3c2cnn3-c2ccc(F)cc2F)OCCO1 (centres undefined) | 2.2% | -17.5% | 4.11µM*
14 | Cc1nc2c(=O)[nH]n(C)c2nc1C | / | / | -10.8%
15 | CN1CCN(C(=O)CSc2ccc(Cl)cc2)CC1 | -8.3% | 4.8% | 3.2%
16 | O=C(/C=C/c1ccc(Cl)cc1)N1CCN(c2c(Cl)cccc2[N+](=O)[O-])CC1 | 5.6% | 1.8% | 14.6µM*

no. | miR-21 reporter | TDP1 cell CPT
9 | 2.1% | -6.8%
10 | 29.6% | 3.26µM*
11 | / | 20.6µM*
12 | 21.0% | ?
13 | 16.0% | 20.6µM*
14 | / | -1.3%
15 | 2.1% | 8.7%
16 | -0.9% | ?

Five of the compounds above, with two lines to a compound.
Results follow in this order: TDP1 block, uPA generation, DT40 TDP1 no CPT, miR-21 reporter, TDP1 cell CPT
12) O=C(CCc1ccncc1)NC1CCCc2c1cnn2-c1ccc(F)cc1F (centres undefined)
 : 3.6%, -5.8%, ?, 21.0%, ?
13) CC1=C(C(=O)NC2CCCc3c2cnn3-c2ccc(F)cc2F)OCCO1 (centres undefined)
 : 2.2%, -17.5%, 4.11µM*, 16.0%, 20.6µM*
14) Cc1nc2c(=O)[nH]n(C)c2nc1C
 : /, /, -10.8%, /, -1.3%
15) CN1CCN(C(=O)CSc2ccc(Cl)cc2)CC1
 : -8.3%, 4.8%, 3.2%, 2.1%, 8.7%
16) O=C(/C=C/c1ccc(Cl)cc1)N1CCN(c2c(Cl)cccc2[N+](=O)[O-])CC1
 : 5.6%, 1.8%, 14.6µM*, -0.9%, ?

Next section
no. | Molecule | TDP1 block | uPA generation | DT40 TDP1 no CPT
17 | O=C(CCSc1ccc(Cl)cc1)N1CCN(c2ccc(O)cc2)CC1 | / | -14.7% | -95.1%
18 | O=C(CCSc1ccc(Cl)cc1)N1CCN(c2ncccn2)CC1 | 3.1% | -0.8% | ?
19 | O=C(CSc1ccc(Cl)cc1)N1CCN(c2c(Cl)cccc2[N+](=O)[O-])CC1 | 4.0% | 12.2% | 14.6µM*
20 | O=[N+]([O-])c1ccc(N2CCN(c3ccccc3O)CC2)c(Cl)c1 | 0.0% | -5.6% | 23.1µM*
21 | O=[N+]([O-])c1ccc(N2CCN(CCOc3nonc3-c3ccccc3)CC2)c(Cl)c1 | 3.8% | -5.5% | ?
22 | O=C(CSc1ccc(Cl)cc1)N1CCN(c2ccc([N+](=O)[O-])cc2Cl)CC1 | 2.0% | -4.8% | 18.4µM*
23 | Brc1ccc2c(c1)-c1ccccc1C1=NCCN12 | / | / | 0.82µM*
24 | Clc1ccc2c(c1)-c1ccccc1C1=NCCN12 | / | / | 1.64µM*

no. | miR-21 reporter | TDP1 cell CPT
17 | -10.0% | -87.2%
18 | -47.7% | 13µM*
19 | -2.9% | 16.4µM*
20 | -15.9% | 20.6µM*
21 | -2.5% | 29.1µM*
22 | 9.2% | ?
23 | / | 1.46µM*
24 | / | -104.9%

(next part)
no. | Molecule | TDP1 block | uPA generation | DT40 TDP1 no CPT
25 | CC(=O)Nc1cccc(Oc2nc(NCCN(C)C)nc3ccsc23)c1 | / | / | -19.4%
26 | CC(C)Oc1ccc(CNC(=O)c2cc3cccc4c3n2CC(C)S4)cc1 (centres undefined) | 0.0% | / | ?
27 | O=C(NCc1ccc(Cl)cc1)c1cc2cccc3c2n1CCS3 | -8.5% | / | 16.4µM*
28 | CC(=O)N1CCc2cc(S(=O)(=O)NCCC(=O)N3CCN(c4ccccn4)CC3)ccc21 | 4.0% | / | ?
29 | O=C(C1CCC1)N1CCc2cc(S(=O)(=O)NCCN3CCN(c4ccccc4F)CC3)ccc21 | 7.3% | -13.2% | 23.1µM*
30 | O=C(CCNS(=O)(=O)c1ccc2c(c1)CCN2C(=O)C1CC1)N1CCN(c2ccccc2F)CC1 | 4.4% | / | 11.6µM*
31 | Cc1cc(C)n2nc(C(=O)OCC(=O)N(C)C3CCCCC3)nc2n1 | 0.5% | 1.2% | 8.1%
32 | COC(=O)C1=CN(c2ccc(F)cc2)C=C(C(=O)OC)C1c1ccc(O)cc1 | / | 4.4% | 16.4µM*

no. | miR-21 reporter | TDP1 cell CPT
25 | / | -7.8%
26 | 10.6% | ?
27 | 17.5% | ?
28 | -0.7% | -23.2%
29 | 18.1% | ?
30 | 5.9% | 13µM*
31 | / | 15.0%
32 | -25.1% | 6.0%

(next part)
no. | Molecule | TDP1 block | uPA generation | DT40 TDP1 no CPT
33 | COC(=O)C1=CN(c2ccc(F)cc2)C(N)=C(C#N)C1c1ccc(-c2ccccc2)cc1 (centres undefined) | / | / | 5.8µM*
34 | COC(=O)C1=CN(c2ccc(F)cc2)C(N)=C(C#N)C1c1cccc(F)c1 (centres undefined) | / | / | 11.6µM*
35 | COC(=O)C1=CN(c2cc(C)cc(C)c2)C=C(C(=O)OC)C1c1cccc(F)c1 | -15.9% | 1.9% | 13µM*
36 | O=C(COc1ccc(S(=O)(=O)N2CCOCC2)cc1)NCc1ccccc1 | 2.2% | -4.1% | -9.6%
37 | O=C(CCNC(=O)c1ccccc1Cl)NCC1CCCO1 (centres undefined) | 2.4% | -0.5% | 0.6%
38 | COC(=O)C1=CN(c2ccc(Oc3ccccc3)cc2)C(N)=C(C#N)C1c1cccc(F)c1 (centres undefined) | / | / | 8.2µM*
39 | COC(=O)C1=CN(c2ccc(OC)cc2OC)C(N)=C(C#N)C1c1cccc([N+](=O)[O-])c1 (centres undefined) | / | / | 0.326µM*
40 | COC(=O)C1=CN(c2cccc(OCc3ccccc3)c2)C(N)=C(C#N)C1c1cccc(F)c1 (centres undefined) | / | / | 23.1µM*

no. | miR-21 reporter | TDP1 cell CPT
33 | / | 7.31µM*
34 | / | 7.31µM*
35 | 0.1% | 18.4µM*
36 | 0.7% | -1.9%
37 | / | 22.3%
38 | / | ?
39 | / | 0.366µM*
40 | / | 13µM*

Other compounds
no. | Molecule | TDP1 block | uPA generation | DT40 TDP1 no CPT
41 | COC(=O)C1=CN(c2ccc3c(c2)OCO3)C(N)=C(C#N)C1c1ccc(-c2ccccc2)cc1 (centres undefined) | / | / | 6.51µM*
42 | COC(=O)C1=CN(C(C)C)C=C(C(=O)OC)C1c1cccc(OC)c1 | 0.5% | 3.7% | -1.0%
43 | Cc1cccn2c(=O)c(/C=C(\C#N)C(=O)NCc3ccco3)c(N3CCOCC3)nc12 | -3.5% | -4.6% | ?
44 | Cc1ccc(S(=O)(=O)N2CCC(C(=O)N[C@H](C(=O)NCC3CCCO3)C(C)C)CC2)cc1 (some centres undefined) | 4.0% | -2.6% | -0.7%
45 | COC(=O)C1=CN(c2ccc(N3CCOCC3)cc2)C(N)=C(C#N)C1c1cccc(F)c1 (centres undefined) | / | / | 8.2µM*
46 | CC(=O)Nc1cccc(C(=O)OCC(=O)N(c2ccccc2)C2CCS(=O)(=O)C2)c1 (centres undefined) | -0.1% | -0.4% | -3.7%
47 | Cc1ccc(C2=Nc3ccccc3N(CC(=O)Nc3ccccc3F)C(=O)C2)cc1C | 9.7% | / | 25.9µM*

no. | miR-21 reporter | TDP1 cell CPT
41 | / | 5.8µM*
42 | -0.8% | 2.0%
43 | 6.4% | ?
44 | -0.5% | -23.6%
45 | / | ?
46 | / | -18.2%
47 | 0.2% | 23.1µM*

Assay outcomes from PubChem.
